Laboratory results taken from patent publication US20060070135A1, “Compositions and methods for inhibiting the enzymatic activity of PTP-1B” (priority 1998, published 2006).
Only a part of the results on these compounds is given; other tests are left out.

Chains of the proteins cited; added tags and fusions are not shown.
UniProt P18031, whole entry: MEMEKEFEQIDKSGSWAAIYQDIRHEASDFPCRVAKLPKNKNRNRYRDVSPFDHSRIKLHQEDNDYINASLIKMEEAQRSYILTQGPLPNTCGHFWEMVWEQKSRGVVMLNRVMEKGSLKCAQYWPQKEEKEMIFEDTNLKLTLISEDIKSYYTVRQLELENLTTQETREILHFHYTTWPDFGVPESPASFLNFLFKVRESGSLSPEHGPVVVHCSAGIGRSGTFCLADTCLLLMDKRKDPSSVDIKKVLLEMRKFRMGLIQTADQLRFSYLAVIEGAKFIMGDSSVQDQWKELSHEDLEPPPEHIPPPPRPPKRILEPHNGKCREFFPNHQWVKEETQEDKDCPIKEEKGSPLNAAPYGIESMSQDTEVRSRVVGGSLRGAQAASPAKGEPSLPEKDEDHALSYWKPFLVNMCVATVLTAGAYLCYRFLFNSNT

Target: human PTP-1B (PTP-1B-GST fusion protein) (Homo sapiens, UniProt P18031)
Test: Cell-free PTP-1B phosphatase assay (malachite green, ppC SRC 60 phosphopeptide substrate)
Conditions: read-out: IC50 avg. value (μM) Cell-free assay, ppC SRC 60 substrate, 15 min at room temperature

For `O=[N+]([O-])c1cc2[nH]c3cc([N+](=O)[O-])c([N+](=O)[O-])cc3c2cc1[N+](=O)[O-]`, the IC50 was 0.56 µM.
